Results taken from US20260078341A1, “TREATMENT OF CANCER USING CHIMERIC ANTIGEN RECEPTOR” (Novartis AG, priority 2014, published 2026).

Tested on: SKOV3
Test: SKOV3 ovarian tumor model, C4-27z CAR-T cells plus exogenous cytokines
Assay type: in vivo, NSG mice
Details: 5 μg daily i.p. for 7 days with 5×10^6 C4-27z CAR-T cells

IL-2: common γ-chain family cytokine, exogenous
antitumor efficacy of cytokine in combination with CAR-T cell injection: showed evidence of improving antitumor outcome
